Values of other authors in article PMC3197876 (Journal of medicinal chemistry, 2011).

Sequences of proteins named here, by UniProt entry; tags and fusion partners are left off. Residues count along the entry.
UniProt P17787, 26-502: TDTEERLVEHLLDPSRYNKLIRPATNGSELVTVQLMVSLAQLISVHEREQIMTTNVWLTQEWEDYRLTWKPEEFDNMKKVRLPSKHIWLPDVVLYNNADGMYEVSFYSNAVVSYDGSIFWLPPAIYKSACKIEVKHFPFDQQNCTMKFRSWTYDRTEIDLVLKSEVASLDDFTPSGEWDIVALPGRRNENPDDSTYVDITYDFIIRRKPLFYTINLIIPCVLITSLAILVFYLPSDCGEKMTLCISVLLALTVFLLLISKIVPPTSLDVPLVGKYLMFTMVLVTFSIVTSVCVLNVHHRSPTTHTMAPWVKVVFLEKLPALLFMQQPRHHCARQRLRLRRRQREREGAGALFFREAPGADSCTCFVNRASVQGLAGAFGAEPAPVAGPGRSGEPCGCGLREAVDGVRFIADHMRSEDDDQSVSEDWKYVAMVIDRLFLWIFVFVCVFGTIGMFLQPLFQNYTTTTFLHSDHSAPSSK
UniProt P43681, 29-627 limits assumed: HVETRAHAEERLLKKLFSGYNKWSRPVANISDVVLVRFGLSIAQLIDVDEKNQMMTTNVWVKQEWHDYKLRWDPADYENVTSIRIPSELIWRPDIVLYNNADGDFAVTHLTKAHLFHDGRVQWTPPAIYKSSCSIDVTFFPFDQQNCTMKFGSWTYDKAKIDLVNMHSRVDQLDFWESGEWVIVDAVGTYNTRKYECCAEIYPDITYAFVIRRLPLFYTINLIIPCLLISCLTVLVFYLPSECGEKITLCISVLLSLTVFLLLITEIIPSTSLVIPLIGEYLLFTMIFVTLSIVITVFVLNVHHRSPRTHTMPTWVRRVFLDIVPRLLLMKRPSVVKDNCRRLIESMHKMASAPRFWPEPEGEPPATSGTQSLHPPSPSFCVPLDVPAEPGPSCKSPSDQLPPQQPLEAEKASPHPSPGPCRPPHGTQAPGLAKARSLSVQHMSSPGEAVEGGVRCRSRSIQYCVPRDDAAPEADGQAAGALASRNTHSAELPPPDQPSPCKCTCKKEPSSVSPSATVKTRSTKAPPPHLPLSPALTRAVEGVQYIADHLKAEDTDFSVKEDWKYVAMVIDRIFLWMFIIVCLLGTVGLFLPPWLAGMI

Target: human α4β2-nAChR (Homo sapiens, UniProt P17787+P43681)
Settings: normalized to complete functional inhibition; ref [13]; cited from earlier work

**Q.** For CN1CCC[C@H]1c1cccnc1 [Nicotine], which “Inactivation Efficacy” value is on record?
**A.** 93%
